From ChEMBL document CHEMBL1649335 (Bioorg Med Chem, 2010)

Sequences of proteins named here, by UniProt entry; tags and fusion partners are left off.
UniProt P35372, whole entry: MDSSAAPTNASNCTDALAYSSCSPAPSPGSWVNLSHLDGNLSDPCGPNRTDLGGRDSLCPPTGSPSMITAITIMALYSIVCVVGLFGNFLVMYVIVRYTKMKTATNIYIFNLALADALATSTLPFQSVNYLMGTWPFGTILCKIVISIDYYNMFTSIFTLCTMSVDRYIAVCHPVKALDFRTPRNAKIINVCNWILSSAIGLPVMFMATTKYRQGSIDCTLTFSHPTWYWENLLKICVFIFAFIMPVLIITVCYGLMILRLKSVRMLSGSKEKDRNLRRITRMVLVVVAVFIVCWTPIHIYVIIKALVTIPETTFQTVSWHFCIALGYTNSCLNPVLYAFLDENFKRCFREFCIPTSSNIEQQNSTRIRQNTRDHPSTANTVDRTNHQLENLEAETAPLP
UniProt P41146, whole entry: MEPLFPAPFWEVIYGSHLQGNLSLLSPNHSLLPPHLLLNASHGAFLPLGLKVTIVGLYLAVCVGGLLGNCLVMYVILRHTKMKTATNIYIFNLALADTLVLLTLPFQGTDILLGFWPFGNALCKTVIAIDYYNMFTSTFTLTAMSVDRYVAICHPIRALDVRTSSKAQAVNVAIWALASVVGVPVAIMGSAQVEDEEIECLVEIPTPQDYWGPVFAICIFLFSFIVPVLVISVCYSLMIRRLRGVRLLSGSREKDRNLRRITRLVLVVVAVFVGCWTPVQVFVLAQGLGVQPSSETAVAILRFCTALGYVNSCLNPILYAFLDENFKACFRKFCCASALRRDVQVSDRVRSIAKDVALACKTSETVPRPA
UniProt P41145, whole entry: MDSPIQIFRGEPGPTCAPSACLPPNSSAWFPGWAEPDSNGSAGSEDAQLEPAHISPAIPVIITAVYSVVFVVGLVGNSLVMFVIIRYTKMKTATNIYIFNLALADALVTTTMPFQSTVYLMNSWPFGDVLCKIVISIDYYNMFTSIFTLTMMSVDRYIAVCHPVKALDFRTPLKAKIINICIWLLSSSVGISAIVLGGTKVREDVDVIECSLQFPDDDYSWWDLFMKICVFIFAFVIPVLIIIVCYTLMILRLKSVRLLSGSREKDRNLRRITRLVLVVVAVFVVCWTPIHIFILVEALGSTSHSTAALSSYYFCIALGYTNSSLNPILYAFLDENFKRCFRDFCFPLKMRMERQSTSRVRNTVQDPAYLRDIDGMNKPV

Key:
Mu-type opioid receptor = Mu-type opioid receptor (Homo sapiens, UniProt P35372); conditions: CHO-K1
Nociceptin receptor = Nociceptin receptor (Homo sapiens, UniProt P41146); conditions: HEK293
[1] = target: Kappa-type opioid receptor (Homo sapiens, UniProt P41145); conditions: HEK293

SMILES | Emax (Mu-type opioid receptor) [%] | Emax (Nociceptin receptor) [%] | Emax [1] [%]
CC1CN(c2nc3ccccc3n2C2CCN(C3(CO)CCCCCCC3)CC2)CCN1 (configuration not stated) | 15 | 151 | 18
CC1(C)CN(c2nc3ccccc3n2C2CCN(C3(CO)CCCCCCC3)CC2)CCN1 | 2 | 132 | 14
OCC1(N2CCC(n3c(N4CC5CNCC5C4)nc4ccccc43)CC2)CCCCCCC1 (configuration not stated) | 14 | 144 | 22
OCC1(N2CCC(n3c(-c4ccc(Cl)cc4)nc4ccccc43)CC2)CCCCCCC1 | 30 | 161 | 1
O=c1[nH]c2ccccc2n1C1CCN(C2(CO)CCCCCCC2)CC1 | 13 | 136 | 50
CN1CCN(c2nc3ccccc3n2C2CCN(C3(CO)CCCCCCC3)CC2)CC1 | 13 | 104 | 34
OCC1(N2CCC(n3c(-c4ccc(F)c(Cl)c4)nc4ccccc43)CC2)CCCCC1 | 6 | 106 | 
OCC1(N2CCC(n3c(-c4ccc(F)c(Cl)c4)nc4ccccc43)CC2)CCCCCCC1 | 12 | 140 | 
